Substrate: COc1cc(C=O)ccc1OC(=O)COC(=O)/C=C/c1ccc(Cl)cc1
Details: Agaricus bisporus; 33.3 uM

B1: Tyrosinase (Agaricus bisporus), O42713 (protein)
chain: MSLIATVGPTGGVKNRLNIVDFVKNEKFFTLYVRSLELLQAKEQHDYSSFFQLAGIHGLPFTEWAKERPSMNLYKAGYCTHGQVLFPTWHRTYLSVLEQILQGAAIEVAKKFTSNQTDWVQAAQDLRQPYWDWGFELMPPDEVIKNEEVNITNYDGKKISVKNPILRYHFHPIDPSFKPYGDFATWRTTVRNPDRNRREDIPGLIKKMRLEEGQIREKTYNMLKFNDAWERFSNHGISDDQHANSLESVHDDIHVMVGYGKIEGHMDHPFFAAFDPIFWLHHTNVDRLLSLWKAINPDVWVTSGRNRDGTMGIAPNAQINSETPLEPFYQSGDKVWTSASLADTARLGYSYPDFDKLVGGTKELIRDAIDDLIDERYGSKPSSGARNTAFDLLADFKGITKEHKEDLKMYDWTIHVAFKKFELKESFSLLFYFASDGGDYDQENCFVGSINAFRGTAPETCANCQDNENLIQEGFIHLNHYLARDLESFEPQDVHKFLKEKGLSYKLYSRGDKPLTSLSVKIEGRPLHLPPGEHRPKYDHTQARVVFDDVAVHVIN
Km: 1050 µM

From ChEMBL document CHEMBL3600307, “Synthesis, kinetic mechanism and docking studies of vanillin derivatives as inhibitors of mushroom tyrosinase” (Bioorg Med Chem, 2015)
